Experimental data published in patent US20090017452A1, “METHODS AND COMPOSITIONS RELATING TO THE PHARMACOGENETICS OF DIFFERENT GENE VARIANTS” (UNIVERSITY OF CHICAGO, priority 2004, published 2009).

Experiment: Irinotecan and metabolite AUC by ABCC2 3972C>T genotype in cancer patients
Conditions: 350 mg/m^2 IV irinotecan

CCc1c2c(nc3ccc(O[C@@H]4O[C@H](C(=O)O)[C@@H](O)[C@H](O)[C@H]4O)cc13)-c1cc3c(c(=O)n1C2)COC(=O)[C@]3(O)CC [SN-38G, 10O-glucuronyl-SN-38]
AUC ratio SN-38G/SN-38 in TT patients compared to CT and CC patients: Higher values of AUC ratios
AUC versus ABCC2 3972C>T genotype (TT compared to CT and CC) (patients with 6/6 and 6/7 UGT1A1 genotype (n=54)): higher AUC values
